The text below walks through data of PubChem BioAssay AID648 (SRMLSC, 2007).

Only a part is listed here, and it is no random draw. Active and inactive are the calls of the source.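 The calls were made as follows: active = viability at or below 30%; inactive = viability above 30%.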

A short description of the assay: endothelial cell growth inhibition – HUVEC, 384-well, primary screen (AID 648).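 Also: 100% = median luminescence of DMSO-only cell control wells on each plate.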 Conditions: HUVEC proliferation, CellTiter-Glo luminescence, 72 h; active compounds read low; screened at 10 µM (by protocol). For orientation: ATP-based viability assays read luminescence as a measure of living cells.
Consider `N/C(=N\O)c1c(N)no[n+]1[O-]`, for which the viability is inactive: 92.7%.

For `c1ccc(CN2CCC(Nc3ccccc3)CC2)cc1`, the viability was inactive: 104%.

On to `Fc1ccccc1NC1CCN(Cc2ccccc2)CC1`, for which the viability is inactive: 87.7%.

For the compound `CCC(CO)(C(=O)OC1CN2CCC1CC2)c1ccccc1` (centres undefined), the viability was inactive: 96%.

Consider `CCOc1ncccc1C(=O)NCC1(N2CCOCC2)CCCCC1`, for which the viability was inactive: 101%.

Regarding `O=C(OC1CN2CCC1CC2)C1c2ccccc2Oc2ccccc21` (centres undefined), the viability was inactive: 93.3%.

Regarding `O=C(NCC1(N2CCOCC2)CCCCC1)c1cc2ccccc2o1`, the viability is inactive: 99.7%.

Take `O=C(NCC1(N2CCOCC2)CCCCC1)c1cc(=O)[nH]c2ccccc12`: the viability is inactive: 93.2%.

With `N#CC1(Nc2ccccc2)CCN(CCc2ccccc2)CC1`, the viability was inactive: 101%.

The viability is a read-out of living cells in per cent, often relative to untreated cells.
